This passage reports IC50 results from US20240360082A1, “SUBSTITUTED PYRIDONE COMPOUNDS USEFUL TO TREAT ORTH[…]” (priority 2021, published 2024).

Read-outs that look alike come from different tables or passages of the source.

The test has as its system influenza virus (multiple flu strains). Description: organism not typed. The following applies: MDCK.
Where [1] appears, read: read-out: NA Alaska H3N2, NA assay, Alaska H3N2 strain.
[2] abbreviates: read-out: NA CAL H1N1, NA assay, CAL H1N1 strain.
Setting [3] is: read-out: NA—PR8 H1N1, NA assay, PR8 H1N1 strain.
The mark [4] stands for this setting: read-out: NA Alaska H3N2 IC50, NA assay, Alaska H3N2 strain.
The mark [5] stands for this setting: read-out: NA CAL H1N1 IC50, NA assay, CAL H1N1 strain.

For the compound `N#Cc1cccc(COc2ccc(-c3cc(C(N)=O)c(=O)[nH]c3C(F)(F)F)cc2)c1` [Example 78, 5-(4-((3-cyanobenzyl)oxy)phenyl)-2-oxo-6-(trifluoromethyl)-1,2-dihydropyridine-3-carboxamide], the IC50 under setting [1] fell in the range of 0.1 to 1 µM and the IC50 under setting [2] lay in the range of 0.01 to 0.1 µM.
For the compound `Cc1cccc(-c2cc(C(N)=O)c(=O)[nH]c2C(F)(F)F)c1` [Example 24, 2-oxo-5-(m-tolyl)-6-(trifluoromethyl)-1,2-dihydropyridine-3-carboxamide], the IC50 under setting [3] lay within 5 to 10 µM.
Regarding `CC(Oc1ccc(-c2cc(C(N)=O)c(=O)[nH]c2C(F)(F)F)cc1)c1ccc2nonc2c1` (single isomer, unassigned) [Example 100, (R or S)-5-(4-(1-(benzo[c][1,2,5]oxadiazol-5-yl)ethoxy)phenyl)-2-oxo-6-(trifluoromethyl)-1,2-dihydropyridine-3-carboxamide], the IC50 lay within 0.1 to 1 µM under setting [1] and 0.1 to 1 µM under setting [2].
Regarding `COC[C@H]1COC[C@@H](COc2ccc(-c3cc(C(N)=O)c(=O)[nH]c3C(F)(F)F)cc2)O1` [Example 398, 5-(4-(((2S,6S)-6-(methoxymethyl)-1,4-dioxan-2-yl)methoxy)phenyl)-2-oxo-6-(trifluoromethyl)-1,2-dihydropyridine-3-carboxamide], the IC50 runs as follows: under setting [4], 0.01 to 0.1 µM; under setting [5], 0.01 to 0.1 µM.
In the case of `NC(=O)c1cc(-c2ccc(OCc3cccc4nonc34)cc2)c(C(F)(F)F)[nH]c1=O` [Example 74, 5-(4-(benzo[c][1,2,5]oxadiazol-4-ylmethoxy)phenyl)-2-oxo-6-(trifluoromethyl)-1,2-dihydropyridine-3-carboxamide], the IC50 reads like this: under setting [1], 0.1 to 1 µM; under setting [2], 0.1 to 1 µM.
As for `NC(=O)c1cc(-c2ccc(OCc3cnc(OCC4CCO4)nc3)cc2)c(C(F)(F)F)[nH]c1=O` (stereo not shown) [Example 156, 5-(4-((2-(oxetan-2-ylmethoxy)pyrimidin-5-yl)methoxy)phenyl)-2-oxo-6-(trifluoromethyl)-1,2-dihydropyridine-3-carboxamide], the IC50 is 1 to 5 µM under setting [1] and 25 to 50 µM under setting [2].
Regarding `NC(=O)c1cc(-c2ccc(OCc3ccc4nonc4c3)cc2)c(C(F)(F)F)[nH]c1=O` [Example 71, 5-(4-(benzo[c][1,2,5]oxadiazol-5-ylmethoxy)phenyl)-2-oxo-6-(trifluoromethyl)-1,2-dihydropyridine-3-carboxamide], the IC50 lay within 0.1 to 1 µM under setting [1] and 0.01 to 0.1 µM under setting [2].
Regarding `NC(=O)c1cc(-c2ccc(OCc3ccnnc3)cc2)c(C(F)(F)F)[nH]c1=O` [Example 84, 2-oxo-5-(4-(pyridazin-4-ylmethoxy)phenyl)-6-(trifluoromethyl)-1,2-dihydropyridine-3-carboxamide], the IC50 under setting [1] was 1 to 5 µM and the IC50 under setting [2] was in the range of 10 to 25 µM.
`CNC(=O)c1ccc(-c2cc(C(N)=O)c(=O)[nH]c2C(F)(F)F)cc1` [Example 19, 5-(4-(methylcarbamoyl)phenyl)-2-oxo-6-(trifluoromethyl)-1,2-dihydropyridine-3-carboxamide]: the IC50 under setting [3] is 1 to 5 µM.
On to `CC1CN(Cc2ccc(-c3cc(C(N)=O)c(=O)[nH]c3C(F)(F)F)cc2)CCO1` (stereo not shown) [Example 29, 5-(4-((2-methylmorpholino)methyl)phenyl)-2-oxo-6-(trifluoromethyl)-1,2-dihydropyridine-3-carboxamide], for which the IC50 lay within 0.1 to 1 µM under setting [1] and 1 to 5 µM under setting [2].
Consider `NC(=O)c1cc(-c2ccc(CN3CCOCC3)cc2)c(C(F)(F)F)[nH]c1=O` [Example 1, 5-(4-(morpholinomethyl)phenyl)-2-oxo-6-(trifluoromethyl)-1,2-dihydropyridine-3-carboxamide], for which the IC50 runs as follows: under setting [1], 0.1 to 1 µM; under setting [2], 1 to 5 µM; under setting [3], 0.1 to 1 µM.
On to `NC(=O)c1cc(-c2ccc(OCc3ccc4ccncc4c3)cc2)c(C(F)(F)F)[nH]c1=O` [Example 137, 5-(4-(isoquinolin-7-ylmethoxy)phenyl)-2-oxo-6-(trifluoromethyl)-1,2-dihydropyridine-3-carboxamide], for which the IC50 fell in the range of 1 to 5 µM under setting [1] and 25 to 50 µM under setting [2].
Regarding `NC(=O)c1cc(-c2ccc(CO)cc2)c(C(F)(F)F)[nH]c1=O` [Example 2, 5-(4-(hydroxymethyl)phenyl)-2-oxo-6-(trifluoromethyl)-1,2-dihydropyridine-3-carboxamide], the IC50 is, setting by setting: under setting [1], 0.1 to 1 µM; under setting [2], 10 to 25 µM; under setting [3], 0.1 to 1 µM.
As to `NC(=O)c1cc(-c2ccc(OCc3ccon3)cc2)c(C(F)(F)F)[nH]c1=O` [Example 223, 5-(4-(isoxazol-3-ylmethoxy)phenyl)-2-oxo-6-(trifluoromethyl)-1,2-dihydropyridine-3-carboxamide], the IC50 was 0.1 to 1 µM under setting [4] and 1 to 5 µM under setting [5].
In the same order, the values of `COC[C@@]1(C)COC[C@H](COc2ccc(-c3cc(C(N)=O)c(=O)[nH]c3C(F)(F)F)cc2)O1` [Example 408, 5-(4-(((2R,6S)-6-(methoxymethyl)-6-methyl-1,4-dioxan-2-yl)methoxy)phenyl)-2-oxo-6-(trifluoromethyl)-1,2-dihydropyridine-3-carboxamide] are 0.01 to 0.1 µM and 0.1 to 1 µM.
`NC(=O)c1cc(-c2ccc(OCC3COCC(CF)O3)cc2)c(C(F)(F)F)[nH]c1=O` (single isomer, unassigned) [Example 351, 5-(4-((6-(fluoromethyl)-1,4-dioxan-2-yl)methoxy)phenyl)-2-oxo-6-(trifluoromethyl)-1,2-dihydropyridine-3-carboxamide]: the IC50 by setting is: under setting [4], 0.01 to 0.1 µM; under setting [5], 0.1 to 1 µM.
Turning to `NC(=O)c1cc(-c2ccc(OCc3ccc(N4CCOCC4)nc3)cc2)c(C(F)(F)F)[nH]c1=O` [Example 128, 5-(4-((8-morpholinopyridin-3-yl)methoxy)phenyl)-2-oxo-6-(trifluoromethyl)-1,2-dihydropyridine-3-carboxamide], the IC50 reads like this: under setting [1], 1 to 5 µM; under setting [2], 25 to 50 µM.
In the same order, the values of `CC(C)(C)OC(=O)N1CCOC(COc2ccc(-c3cc(C(N)=O)c(=O)[nH]c3C(F)(F)F)cc2)C1` (stereo not shown) [Example 190, tert-butyl 2-((4-(5-carbamoyl-6-oxo-2-(trifluoromethyl)-1,6-dihydropyridin-3-yl)phenoxy)methyl)morpholine-4-carboxylate] are 0.1 to 1 µM and 5 to 10 µM.
In the same order, the values of `Cc1noc(C)c1COc1ccc(-c2cc(C(N)=O)c(=O)[nH]c2C(F)(F)F)cc1` [Example 107, 5-(4-((3,5-dimethylisoxazol-4-yl)methoxy)phenyl)-2-oxo-6-(trifluoromethyl)-1,2-dihydropyridine-3-carboxamide] are 0.1 to 1 µM and 1 to 5 µM.
In the case of `CCCNc1cncc(COc2ccc(-c3cc(C(N)=O)c(=O)[nH]c3C(F)(F)F)cc2)c1` [Example 120, 2-oxo-5-(4-((5-(propylamino)pyridin-3-yl)methoxy)phenyl)-6-(trifluoromethyl)-1,2-dihydropyridine-3-carboxamide], the IC50 reads like this: under setting [1], 0.01 to 0.1 µM; under setting [2], 0.1 to 1 µM.
Taken in the same sequence, the figures for `NC(=O)c1cc(-c2ccc(OCc3ccc4no[n+]([O-])c4c3)cc2)c(C(F)(F)F)[nH]c1=O` [Example 94] were 0.1 to 1 µM and 0.1 to 1 µM.
In the same order, the values of `NC(=O)c1cc(-c2ccc(OCc3ccccn3)cc2)c(C(F)(F)F)[nH]c1=O` [Example 73, 2-oxo-5-(4-(pyridin-2-ylmethoxy)phenyl)-6-(trifluoromethyl)-1,2-dihydropyridine-3-carboxamide] are 0.1 to 1 µM and 0.1 to 1 µM.
On to `NC(=O)c1cc(-c2ccc(OCc3ccn4nnnc4c3)cc2)c(C(F)(F)F)[nH]c1=O` [Example 90, 2-oxo-5-(4-(tetrazolo[1,5-a]pyridin-7-ylmethoxy)phenyl)-6-(trifluoromethyl)-1,2-dihydropyridine-3-carboxamide], for which the IC50 under setting [1] is 1 to 5 µM and the IC50 under setting [2] was in the range of 10 to 25 µM.
Taken in the same sequence, the figures for `NC(=O)c1cc(-c2ccc(CN3CCOCC3)cc2F)c(C(F)(F)F)[nH]c1=O` [Example 42, 5-(2-fluoro-4-(morpholinomethyl)phenyl)-2-oxo-6-(trifluoromethyl)-1,2-dihydropyridine-3-carboxamide] were 1 to 5 µM and 10 to 25 µM.
Regarding `NC(=O)c1cc(-c2ccc(OCC3(F)COC3)cc2)c(C(F)(F)F)[nH]c1=O` [Example 226, 5-(4-((3-fluorooxetan-3-yl)methoxy)phenyl)-2-oxo-6-(trifluoromethyl)-1,2-dihydropyridine-3-carboxamide], the IC50 under setting [4] was 0.1 to 1 µM and the IC50 under setting [5] lay within 1 to 5 µM.
In the case of `NC(=O)c1cc(-c2ccc(C(c3cnco3)N3CCOCC3)cc2)c(C(F)(F)F)[nH]c1=O` (stereo not shown) [Example 48, 5-(4-(morpholino(oxazol-5-yl)methyl)phenyl)-2-oxo-6-(trifluoromethyl)-1,2-dihydropyridine-3-carboxamide], the IC50 fell in the range of 5 to 10 µM under setting [1] and 10 to 25 µM under setting [2].
In the same order, the values of `NC(=O)c1cc(-c2ccc(OCc3ccc(F)c(F)c3)cc2)c(C(F)(F)F)[nH]c1=O` [Example 112, 5-(4-((3,4-difluorobenzyl)oxy)phenyl)-2-oxo-6-(trifluoromethyl)-1,2-dihydropyridine-3-carboxamide] are 0.1 to 1 µM and 0.01 to 0.1 µM.
As for `NC(=O)c1cc(-c2ccc(OCc3cncc(Br)c3)cc2)c(C(F)(F)F)[nH]c1=O` [Example 212, 5-(4-((5-bromopyridin-3-yl)methoxy)phenyl)-2-oxo-6-(trifluoromethyl)-1,2-dihydropyridine-3-carboxamide], the IC50 is, setting by setting: under setting [4], 0.01 to 0.1 µM; under setting [5], 0.1 to 1 µM.
Take `NC(=O)c1cc(-c2ccc(OCc3ncccn3)cc2)c(C(F)(F)F)[nH]c1=O` [Example 121, 2-oxo-5-(4-(pyrimidin-2-ylmethoxy)phenyl)-6-(trifluoromethyl)-1,2-dihydropyridine-3-carboxamide]: the IC50 under setting [1] lay within 0.1 to 1 µM and the IC50 under setting [2] was in the range of 1 to 5 µM.
